pIC50: −log10 of the molar value.
Columns and labels:
GLS1 = GLS1 (Homo sapiens (Human), UniProt O94925); test: GLS Enzyme Potency Assay (Glutamate Oxidase/AmplexRed coupled assay); format: biochemical; conditions: 6His tagged GLS protein (amino acids 63-669); geometric mean where repeated
Excerpt: (§1) The following assays were used to measure the effects of the compounds of the present invention: a) GLS Enzyme Potency Assay; b) GLS Cell Potency Assay; c) GLS Cell Proliferation Assay; and d) Mouse Xenograft Model. During the description of the assays, generally: • i. The following abbreviations have been used: CO2=Carbon dioxide; DMEM=Dulbecco's Modified Eagle Medium; DMSO=Dimethyl sulphoxide; EDTA=Ethylenediaminetetraacetic acid; EGTA=Ethylene glycol tetraacetic acid; FCS=Foetal calf serum; h=Hour(s); NBS=Non-binding surface; SDS=Sodium dodecyl sulphate; r.t.=room temperature; TRIS=Tris(Hydroxymethyl)aminomethane. • ii. IC50 values were calculated using a smart fitting model in Genedata. […] Assay a): GLS Enzyme Potency Assay
A Glutamate Oxidase/AmplexRed coupled assay was used to measure the ability of compounds to bind to and inhibit the activity of GLS1 in vitro. […] GLS1 was diluted to 2× working concentration and incubated at r.t. to allow the tetrameric/dimeric forms to reach steady state. Assay measurements were performed in buffer comprising 50 mM TRIS pH 7.8, 100 mM NaPO4, pH 7.8, 0.001% v/v Tween20. […] DMSO concentration was maintained at 2% by back filling with DMSO solution. […] 3 μL of 100 mM glutamine diluted in assay buffer was then added and the reaction incubated at r.t. for 60 minutes. […] An artefact version of the assay where the 6His tagged GLS protein and glutamine were replaced with assay buffer was also used to rule out non specific effects on the assay components.

Amino acid sequences for entries named in this document (tags omitted). Residues count along the entry.
UniProt O94925, 63-669: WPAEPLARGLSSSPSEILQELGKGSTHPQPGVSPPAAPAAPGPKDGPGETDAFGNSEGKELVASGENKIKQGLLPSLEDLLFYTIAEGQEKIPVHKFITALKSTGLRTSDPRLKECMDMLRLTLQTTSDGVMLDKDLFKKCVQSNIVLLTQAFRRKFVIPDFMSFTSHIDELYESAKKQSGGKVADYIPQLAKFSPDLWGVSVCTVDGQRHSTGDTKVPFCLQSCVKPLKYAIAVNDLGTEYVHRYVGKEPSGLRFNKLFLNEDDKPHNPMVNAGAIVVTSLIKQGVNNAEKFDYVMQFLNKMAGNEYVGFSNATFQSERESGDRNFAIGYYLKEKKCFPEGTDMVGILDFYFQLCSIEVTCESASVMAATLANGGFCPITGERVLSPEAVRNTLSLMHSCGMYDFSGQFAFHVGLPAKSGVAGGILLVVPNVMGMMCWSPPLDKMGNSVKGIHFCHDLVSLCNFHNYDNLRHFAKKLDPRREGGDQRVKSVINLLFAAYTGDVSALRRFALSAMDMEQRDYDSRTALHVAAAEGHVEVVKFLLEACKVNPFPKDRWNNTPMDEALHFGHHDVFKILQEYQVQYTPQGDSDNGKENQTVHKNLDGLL
UniProt O94925, 55-669: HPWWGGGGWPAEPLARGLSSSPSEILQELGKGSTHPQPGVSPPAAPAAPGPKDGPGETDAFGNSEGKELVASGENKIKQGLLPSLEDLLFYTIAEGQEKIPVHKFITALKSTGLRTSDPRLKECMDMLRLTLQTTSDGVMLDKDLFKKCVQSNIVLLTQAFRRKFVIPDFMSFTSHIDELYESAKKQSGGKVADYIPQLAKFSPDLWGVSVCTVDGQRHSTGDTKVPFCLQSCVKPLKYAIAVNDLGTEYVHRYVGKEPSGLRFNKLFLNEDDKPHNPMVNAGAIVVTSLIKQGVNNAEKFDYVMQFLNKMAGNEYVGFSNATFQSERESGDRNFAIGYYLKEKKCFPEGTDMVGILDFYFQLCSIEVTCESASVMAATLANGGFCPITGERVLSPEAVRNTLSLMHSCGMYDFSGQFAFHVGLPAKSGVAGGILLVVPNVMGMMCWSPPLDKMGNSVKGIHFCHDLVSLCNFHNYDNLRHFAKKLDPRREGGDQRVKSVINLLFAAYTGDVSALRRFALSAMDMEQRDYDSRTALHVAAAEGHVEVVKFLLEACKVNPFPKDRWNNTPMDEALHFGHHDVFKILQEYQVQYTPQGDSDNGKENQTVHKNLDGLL

cellular GLS activity = cellular GLS activity (Homo sapiens (Human), UniProt O94925); test: GLS Cell Potency Assay (PC3 coupled assay measuring cellular glutamate depletion); format: cell-based; conditions: PC3 cells, 6 h incubation, cellular glutamate depletion; geometric mean where repeated; read-out: Assay b) GLS Cell Potency Assay IC50
Excerpt: The following assays were used to measure the effects of the compounds of the present invention: a) GLS Enzyme Potency Assay; b) GLS Cell Potency Assay; c) GLS Cell Proliferation Assay; and d) Mouse Xenograft Model. During the description of the assays, generally: • i. The following abbreviations have been used: CO2=Carbon dioxide; DMEM=Dulbecco's Modified Eagle Medium; DMSO=Dimethyl sulphoxide; EDTA=Ethylenediaminetetraacetic acid; EGTA=Ethylene glycol tetraacetic acid; FCS=Foetal calf serum; h=Hour(s); NBS=Non-binding surface; SDS=Sodium dodecyl sulphate; r.t.=room temperature; TRIS=Tris(Hydroxymethyl)aminomethane. • ii. […]
Compounds were assessed for their potential to inhibit cellular GLS activity by use of a PC3 coupled assay measuring cellular glutamate depletion. […] DMSO concentration was maintained at 0.3% by back filling with DMSO solution. PC3 cells were grown in phenol free DMEM, 10% dialyzed FCS, 2 mM glutamine and following dispersal by trypsinisation were plated at 5.6×10^3 cells per well in 40 μl of growth medium directly into the 384 well assay plates containing dispensed compound. After incubation for 6 h at 37° C., 5% CO2 growth media was aspirated and cells lysed in 15 μl of buffer containing 10 mM TRIS pH7.4, 100 mM NaCl, 1 mM EDTA, 1 mM EGTA, 1 mM NaF, 20 mM Na4P2O7, 2 mM Na3VO4, 1% Triton X-100, 10% glycerol, 0.1% SDS and 0.5% deoxycholate.

NCI-H1703 cells = test: GLS Cell Proliferation Assay (NCI-H1703); format: cell-based; conditions: Homo sapiens, 120 h; NCI-H1703 cells, 5 days incubation; geometric mean where repeated; read-out: Assay c) GLS Cell Proliferation Assay
Excerpt: as §1, with “Where multiple repeat tests were carried out on a given Example, the result reported is the geometric mean. […]” for “Assay a): GLS Enzyme Potency Assay”
The ability of compounds to inhibit cell growth was measured using a 384 well plate NCI-H1703 cell proliferation assay. […] Plates were read on an Acumen eX3 (TTP Labtech) using 488 nm excitation and FITC filter set (500-530 nm) for emission. IC50 values were calculated by curve fitting to max inhibition of day zero growth using GeneData software analysis.

Row | SMILES | pIC50 (GLS1) | pIC50 (cellular GLS activity) | pIC50 (NCI-H1703 cells)
1 | CO[C@@H](C(=O)Nc1nnc(N[C@@H]2CCN(c3cccnn3)C2)s1)c1ccc(F)cc1 [Example 12(b), (2R)-2-(4-Fluorophenyl)-2-methoxy-N-[5-[[(3R)-1-pyridazin-3-ylpyrrolidin-3-yl]amino]-1,3,4-thiadiazol-2-yl]acetamide] | 6.99 |  | 
2 | CO[C@@H](C(=O)Nc1nnc(N[C@@H]2CCN(c3nccnn3)C2)s1)c1ccc(F)cc1 [17(b), (2R)-2-(4-fluorophenyl)-2-methoxy-N-[5-[[(3R)-1-(1,2,4-triazin-3-yl)pyrrolidin-3-yl]amino]-1,3,4-thiadiazol-2-yl]acetamide] | 7.03 | 8.23 | 
3 | CO[C@H](C(=O)Nc1nnc(N[C@@H]2CCN(c3cncnn3)C2)s1)c1cccc(OC(F)(F)F)c1 [22(a), (2S)-2-methoxy-N-[5-[[(3R)-1-(1,2,4-triazin-6-yl)pyrrolidin-3-yl]amino]-1,3,4-thiadiazol-2-yl]-2-[3-(trifluoromethoxy)phenyl]acetamide] | 7.14 | 8.82 | 
4 | CO[C@H](C(=O)Nc1nnc(N[C@@H]2CCN(c3nccnn3)C2)s1)c1cccc(OC(F)(F)F)c1 [Example 8(a), (2S)-2-Methoxy-N-[5-[[(3R)-1-(1,2,4-triazin-3-yl)pyrrolidin-3-yl]amino]-1,3,4-thiadiazol-2-yl]-2-[3-(trifluoromethoxy)phenyl]acetamide] | 7.51 | 8.89 | 
5 | COc1ccc([C@H](OC)C(=O)Nc2nnc(N[C@@H]3CCN(c4nccnn4)C3)s2)cc1OC [26(a), (2S)-2-(3,4-dimethoxyphenyl)-2-methoxy-N-[5-[[(3R)-1-(1,2,4-triazin-3-yl)pyrrolidin-3-yl]amino]-1,3,4-thiadiazol-2-yl]acetamide] | 5.64 | 6.66 | 
6 | CO[C@H](C(=O)Nc1nnc(N[C@@H]2CCN(c3cccnn3)C2)s1)c1ccc(F)cc1 [Example 12(a), (2S)-2-(4-Fluorophenyl)-2-methoxy-N-[5-[[(3R)-1-pyridazin-3-ylpyrrolidin-3-yl]amino]-1,3,4-thiadiazol-2-yl]acetamide] | 7.66 |  | 
7 | CO[C@@H](C(=O)Nc1nnc(N[C@@H]2CCN(c3cncnn3)C2)s1)c1cccc(OC(F)F)c1 [23(b), (2R)-2-[3-(difluoromethoxy)phenyl]-2-methoxy-N-[5-[[(3R)-1-(1,2,4-triazin-6-yl)pyrrolidin-3-yl]amino]-1,3,4-thiadiazol-2-yl]acetamide] | 6.79 |  | 
8 | CO[C@@H](C(=O)Nc1nnc(N[C@@H]2CCN(c3nccnn3)C2)s1)c1cccc(OC(F)(F)F)c1 [Example 8(b), (2R)-2-Methoxy-N-[5-[[(3R)-1-(1,2,4-triazin-3-yl)pyrrolidin-3-yl]amino]-1,3,4-thiadiazol-2-yl]-2-[3-(trifluoromethoxy)phenyl]acetamide] | 6.66 | 7.54 | 
9 | COc1ccc([C@@H](OC)C(=O)Nc2nnc(N[C@@H]3CCN(c4nccnn4)C3)s2)cc1OC [26(b), (2R)-2-(3,4-dimethoxyphenyl)-2-methoxy-N-[5-[[(3R)-1-(1,2,4-triazin-3-yl)pyrrolidin-3-yl]amino]-1,3,4-thiadiazol-2-yl]acetamide] | 7.06 | 8.47 | 
10 | CO[C@H](C(=O)Nc1nnc(N[C@@H]2CCN(c3cccnn3)C2)s1)c1cccc(OC(F)F)c1 [Example 7(a), (2S)-2-[3-(Difluoromethoxy)phenyl]-2-methoxy-N-[5-[[(3R)-1-pyridazin-3-ylpyrrolidin-3-yl]amino]-1,3,4-thiadiazol-2-yl]acetamide] | 7.83 | 9.26 | 
11 | CO[C@@H](C(=O)Nc1nnc(N[C@@H]2CCN(c3cccnn3)C2)s1)c1cccc(OC(F)F)c1 [Example 7(b), (2R)-2-[3-(Difluoromethoxy)phenyl]-2-methoxy-N-[5-[[(3R)-1-pyridazin-3-ylpyrrolidin-3-yl]amino]-1,3,4-thiadiazol-2-yl]acetamide] | 7.57 | 8.42 | 
12 | CCO[C@@H](C(=O)Nc1nnc(N[C@@H]2CCN(c3cccnn3)C2)s1)c1ccc(OC)cc1 [28(b), (2R)-2-ethoxy-2-(4-methoxyphenyl)-N-[5-[[(3R)-1-pyridazin-3-ylpyrrolidin-3-yl]amino]-1,3,4-thiadiazol-2-yl]acetamide] | 7.07 |  | 
13 | CO[C@H](C(=O)Nc1nnc(N[C@@H]2CCN(c3cncnn3)C2)s1)c1cccc(OC(F)F)c1 [23(a), (2S)-2-[3-(difluoromethoxy)phenyl]-2-methoxy-N-[5-[[(3R)-1-(1,2,4-triazin-6-yl)pyrrolidin-3-yl]amino]-1,3,4-thiadiazol-2-yl]acetamide] | 7.56 |  | 
14 | CO[C@@H](C(=O)Nc1nnc(N[C@@H]2CCN(c3cncnn3)C2)s1)c1cccc(OC(F)(F)F)c1 [22(b), (2R)-2-methoxy-N-[5-[[(3R)-1-(1,2,4-triazin-6-yl)pyrrolidin-3-yl]amino]-1,3,4-thiadiazol-2-yl]-2-[3-(trifluoromethoxy)phenyl]acetamide] | 7.36 | 9.69 | 9.14
15 | CCO[C@@H](C(=O)Nc1nnc(N[C@@H]2CCN(c3cccnn3)C2)s1)c1cccc(OC)c1 [30(b), (2R)-2-ethoxy-2-(3-methoxyphenyl)-N-[5-[[(3R)-1-pyridazin-3-ylpyrrolidin-3-yl]amino]-1,3,4-thiadiazol-2-yl]acetamide] | 7.68 | 9.38 | 
16 | CCO[C@H](C(=O)Nc1nnc(N[C@@H]2CCN(c3cccnn3)C2)s1)c1cccc(OC)c1 [30(a), (2S)-2-ethoxy-2-(3-methoxyphenyl)-N-[5-[[(3R)-1-pyridazin-3-ylpyrrolidin-3-yl]amino]-1,3,4-thiadiazol-2-yl]acetamide] | 7.03 | 8.17 | 
17 | CO[C@H](C(=O)Nc1nnc(N[C@@H]2CCN(c3nccnn3)C2)s1)c1ccc(F)cc1 [17(a), (2S)-2-(4-fluorophenyl)-2-methoxy-N-[5-[[(3R)-1-(1,2,4-triazin-3-yl)pyrrolidin-3-yl]amino]-1,3,4-thiadiazol-2-yl]acetamide] | 5.66 | 6.76 | 
18 | CCO[C@H](C(=O)Nc1nnc(N[C@@H]2CCN(c3cccnn3)C2)s1)c1ccc(OC)cc1 [28(a), (2S)-2-ethoxy-2-(4-methoxyphenyl)-N-[5-[[(3R)-1-pyridazin-3-ylpyrrolidin-3-yl]amino]-1,3,4-thiadiazol-2-yl]acetamide] | 7.47 |  | 
